From publication PMC7533695, “Supertertiary protein structure affects an allosteric network” (Proceedings of the National Academy of Sciences of the …, 2020)

Columns and labels:
[1] = target: T1, PSD-95 PDZ3 (pseudo WT, F337W) (Homo sapiens, UniProt P78352, F337W); assay: Stopped-flow binding and displacement kinetics, PDZ3 WT; settings: koff/kon, pH 7.45, 10 °C, average of replicates where replicated
T1 construct: His tag (only implied by nickel column); made in house; host or cells: Escherichia coli BL21(DE3) pLys

[2] = target: T2, PSD-95 PDZ3 A347G (F337W) (Homo sapiens, UniProt P78352, A347G/F337W); assay: Stopped-flow kinetics, PDZ3 A347G; assay type: binding; settings: koff/kon, pH 7.45, 10 °C
T2 construct: His tag (only implied by nickel column); made in house; host or cells: Escherichia coli BL21(DE3) pLys

[3] = target: T3, PSD-95 PDZ3 R354A (F337W) (Homo sapiens, UniProt P78352, F337W/R354A); assay: Stopped-flow kinetics, PDZ3 R354A; assay type: binding; settings: koff/kon, pH 7.45, 10 °C
T3 construct: His tag (only implied by nickel column); made in house; host or cells: Escherichia coli BL21(DE3) pLys

[4] = target: T4, PSD-95 PDZ3 V362A (F337W) (Homo sapiens, UniProt P78352, F337W/V362A); assay: Stopped-flow kinetics, PDZ3 V362A; assay type: binding; settings: koff/kon, pH 7.45, 10 °C
T4 construct: His tag (only implied by nickel column); made in house; host or cells: Escherichia coli BL21(DE3) pLys

[5] = target: T5, PSD-95 PDZ3 A376G (F337W) (Homo sapiens, UniProt P78352, A376G/F337W); assay: Stopped-flow kinetics, PDZ3 A376G; assay type: binding; settings: koff/kon, pH 7.45, 10 °C
T5 construct: His tag (only implied by nickel column); made in house; host or cells: Escherichia coli BL21(DE3) pLys

[6] = target: T6, PSD-95 PDZ3 F400A (F337W) (Homo sapiens, UniProt P78352, F337W/F400A); assay: Stopped-flow kinetics, PDZ3 F400A; assay type: binding; settings: koff/kon, pH 7.45, 10 °C
T6 construct: made in house; host or cells: Escherichia coli BL21(DE3) pLys

[7] = target: T7, PSD-95 PDZ3-SH3-GK (PSG) (pseudo WT, F337W) (Homo sapiens, UniProt P78352, F337W); assay: Stopped-flow binding and displacement kinetics, PSG WT; settings: koff/kon, pH 7.45, 10 °C
T7 construct: PDZ3, SH3, and GK form another supramodule, denoted PSG; made in house; host or cells: Escherichia coli BL21(DE3) pLys

[8] = target: T8, PSD-95 PDZ3-SH3-GK (PSG) G322A (F337W) (Homo sapiens, UniProt P78352, F337W/G322A); assay: Stopped-flow kinetics, PSG G322A; assay type: binding; settings: koff/kon, pH 7.45, 10 °C
T8 construct: PDZ3, SH3, and GK form another supramodule, denoted PSG; made in house; host or cells: Escherichia coli BL21(DE3) pLys

[9] = target: T9, PSD-95 PDZ3-SH3-GK (PSG) F325A (F337W) (Homo sapiens, UniProt P78352, F325A/F337W); assay: Stopped-flow kinetics, PSG F325A; assay type: binding; settings: koff/kon, pH 7.45, 10 °C
T9 construct: PDZ3, SH3, and GK form another supramodule, denoted PSG; made in house; host or cells: Escherichia coli BL21(DE3) pLys

[10] = target: T10, PSD-95 PDZ3-SH3-GK (PSG) I327V (F337W) (Homo sapiens, UniProt P78352, F337W/I327V); assay: Stopped-flow kinetics, PSG I327V; assay type: binding; settings: koff/kon, pH 7.45, 10 °C
T10 construct: PDZ3, SH3, and GK form another supramodule, denoted PSG; made in house; host or cells: Escherichia coli BL21(DE3) pLys

[11] = target: T11, PSD-95 PDZ3-SH3-GK (PSG) G330A (F337W) (Homo sapiens, UniProt P78352, F337W/G330A); assay: Stopped-flow kinetics, PSG G330A; assay type: binding; settings: koff/kon, pH 7.45, 10 °C
T11 construct: PDZ3, SH3, and GK form another supramodule, denoted PSG; made in house; host or cells: Escherichia coli BL21(DE3) pLys

[12] = target: T12, PSD-95 PDZ3-SH3-GK (PSG) E334A (F337W) (Homo sapiens, UniProt P78352, E334A/F337W); assay: Stopped-flow kinetics, PSG E334A; assay type: binding; settings: koff/kon, pH 7.45, 10 °C
T12 construct: PDZ3, SH3, and GK form another supramodule, denoted PSG; made in house; host or cells: Escherichia coli BL21(DE3) pLys

[13] = target: T13, PSD-95 PDZ3-SH3-GK (PSG) G335A (F337W) (Homo sapiens, UniProt P78352, F337W/G335A); assay: Stopped-flow kinetics, PSG G335A; assay type: binding; settings: koff/kon, pH 7.45, 10 °C
T13 construct: PDZ3, SH3, and GK form another supramodule, denoted PSG; made in house; host or cells: Escherichia coli BL21(DE3) pLys

[14] = target: T14, PSD-95 PDZ3-SH3-GK (PSG) A376G (F337W) (Homo sapiens, UniProt P78352, A376G/F337W); assay: Stopped-flow kinetics, PSG A376G; assay type: binding; settings: koff/kon, pH 7.45, 10 °C
T14 construct: PDZ3, SH3, and GK form another supramodule, denoted PSG; made in house; host or cells: Escherichia coli BL21(DE3) pLys

[15] = target: T15, PSD-95 PDZ3-SH3-GK (PSG) F400A (F337W) (Homo sapiens, UniProt P78352, F337W/F400A); assay: Stopped-flow kinetics, PSG F400A; assay type: binding; settings: koff/kon, pH 7.45, 10 °C
T15 construct: PDZ3, SH3, and GK form another supramodule, denoted PSG; made in house; host or cells: Escherichia coli BL21(DE3) pLys

- Kd [1]: 9.7 µM
- Kd [2]: 23 µM
- Kd [3]: 9.2 µM
- Kd [4]: 8.7 µM
- Kd [5]: 17 µM
- Kd [6]: 4.9 µM
- Kd [7]: 1.7 ± 0.2 µM
- Kd [8]: 0.34 ± 0.01 µM
- Kd [9]: 3.6 ± 0.2 µM
- Kd [10]: 9.2 ± 0.5 µM
- Kd [11]: 14 ± 2 µM
- Kd [12]: 3.4 ± 0.1 µM
- Kd [13]: 0.73 ± 0.02 µM
- Kd [14]: 5.1 ± 0.2 µM
- Kd [15]: 6 ± 0.3 µM
Compound: CCC[C@H](NC(=O)[C@H](CCCCN)NC(=O)[C@H](Cc1ccc(O)cc1)NC(=O)[C@H](CC(N)=O)NC(=O)[C@H](CCCCN)NC(=O)[C@@H](NC(=O)[C@H](CC(=O)O)NC(=O)[C@H](CC(C)C)NC(=O)[C@@H](NC(=O)[C@H](CCCCN)NC(=O)[C@H](CCCCN)NC(=O)CN)C(C)C)[C@@H](C)O)C(=O)N[C@H](C(=O)N[C@@H](CO)C(=O)N[C@H](C(=O)O)C(C)C)[C@@H](C)O [CRIPTP-3 15 AA]
